The source of these data is patent publication EP0174114A1, “Platinum complexes of ascorbic acid and ascorbic acid analogs” (priority 1984, dated 1986).

The nature of the data set: Relative water solubility of the diastereomers. In kind it is physicochemical. The note with it: ratio of water solubility, R,R isomer versus S,S isomer. The source says:
These two isomers are diastereomers, having different physical and chemical properties. The R,R isomer is less than 1/10 as water soluble as the S,S isomer. […] This affords a method of resolving racemic trans-dach into its R,R and S,S forms. As with the cis-dach complexes the isomers of [Pt(trans-dach)(ascorbate)] are highly water- stable.

Turning to “[Pt(R,R-trans-dach)(ascorbate)].3H2O [[Pt(R,R-trans-dach)-(ascorbate)]]”, the “water soluble (relative to the S,S isomer)” value was “less than 1/10”.
